# Measurements published in PubChem BioAssay AID873 (PCMD, 2007).
# Chains of the proteins cited; added tags and fusions are not shown. Residues count along the entry.
# UniProt Q9Y337, 67-293 limits assumed: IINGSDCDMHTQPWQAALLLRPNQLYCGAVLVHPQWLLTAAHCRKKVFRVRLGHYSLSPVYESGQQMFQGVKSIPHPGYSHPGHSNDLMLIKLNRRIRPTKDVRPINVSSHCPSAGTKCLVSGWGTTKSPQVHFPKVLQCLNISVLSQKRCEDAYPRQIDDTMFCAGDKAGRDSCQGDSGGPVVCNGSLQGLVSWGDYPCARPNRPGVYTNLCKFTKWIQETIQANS
# The list shows a part of the results, in another mix than the full data. Some results for these compounds are left out of this collection, so the calls shown say nothing about other tests. Calls of active or inactive are those of the source.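 How the source made its calls: active means inhibition of 40% or more; inactive means the rest.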
# Target: Kallikrein-5 (Homo sapiens) (UniProt Q9Y337)
# Assay: inhibition of kallikrein 5 (hK5) activity – biochemical, 1536-well, primary screen (AID 873);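 further: 0% = enzyme controls without compound and 100% = no-enzyme blanks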
# Conditions: recombinant hK5, fluorogenic AMC substrate cleavage; at 5 µM; hits give high values
row,Structure (SMILES),inhibition
1,COc1cccc(C(=O)NCC2(N3CCCCC3)CCCCC2)c1,inactive: 7.18%
2,CN(C)c1cccc(C(=O)NCC2(N(C)C)CCCCC2)c1,inactive: 16.1%
3,COc1ccc(Br)c(C(=O)NCC2(N3CCCCC3)CCCCC2)c1,inactive: -0.17%
4,O=C(OC1CN2CCC1CC2)C(CO)(c1ccccc1)c1ccccc1 (stereo unspecified),inactive: -18.8%
5,CCN(CC)CC(C)C(C)OC(=O)C(O)(c1ccccc1)c1ccccc1 (stereo unspecified),inactive: 0.7%
6,CC(C)N1C(=O)CC2(CCN(CCOC(=O)C(O)(c3ccccc3)c3ccccc3)CC2)C1=O,inactive: -5.81%
7,O=C(NCC1(N2CCCCC2)CCCCC1)c1cc([N+](=O)[O-])ccc1Cl,inactive: -0.63%
8,CCN1CCCC(OC(=O)C2(O)c3ccccc3C=Cc3ccccc32)C1 (stereo unspecified),inactive: -13.8%
9,C=CCN1CCN(CCOC(=O)C(O)(c2ccccc2)c2ccccc2)CC1,inactive: 0.59%
10,CN(C)C1CCCC1OC(=O)C(O)(c1ccccc1)c1ccccc1 (stereo unspecified),inactive: -6.26%
11,Cc1ccccc1C(=O)NCC1(N2CCCCC2)CCCCC1,inactive: -5.57%
